{"source": "patent US20120329842A1", "about": "(priority 2010, published 2012)", "origin": "cited, not measured here", "system": "other MBLs", "conditions": "cited from earlier work", "data": [{"smiles": "O=C(O)c1cccc(C(=O)O)n1", "note": "[pyridine-2,6-dicarboxylic acid]", "values": [{"measurement": "activity against other MBLs", "result": "not other MBLs"}]}]}
